From US5712367A, “Process for the solubilization of peptides and process for peptide synthesis” (Rhone-Poulenc Chimie, priority 1989, dated 1998)

Experiment: Measurement of the solubilities of the molecules of formula (L)-seryl-A--L in water
Conditions: measured in the filtrate after grinding in water for 15 minutes
Method: Ammonia gas was passed into this solution at room temperature. The ammonium chloride precipitate obtained was rapidly filtered off. […] The product obtained after concentration was immediately ground in water for 15 minutes at room temperature and then filtered off.
The solubility of the product of formula (L)-seryl-A--L was measured in the filtrate.

## L-Serine [3-phenoxybenzyl 3-(hydroxymethyl)benzoate] ester
  solubility in water at 25° C.: 750 µg/mL
